## Cyclic peptide permeability, from CycPeptMPDB

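Lipid, pH, incubation time, direction and concentration are not recorded in the data file. Other peptides of the study may be missing here. Entries at the database's floor value (log10 P of -10) are not listed.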

PAMPA is the parallel artificial membrane permeability assay, which has no cells and reads passive diffusion.
Permeability is given as log10 of P in cm/s; higher (less negative) is more permeable.

{"smiles": "CCCN1CC(=O)N[C@H](CC(C)C)C(=O)N[C@H](CC(C)C)C(=O)N2CCC[C@@H]2C(=O)N[C@H](CC(C)C)C(=O)N[C@@H](Cc2ccccc2)C1=O", "PAMPA (log10 cm/s)": "-4.93"}
{"smiles": "CC(C)C[C@@H]1NC(=O)[C@@H](CC(C)C)NC(=O)[C@@H](C)N(C)C(=O)[C@H](Cc2ccccc2)NC(=O)[C@@H](CC(C)C)NC(=O)[C@H]2CCCN2C1=O", "PAMPA (log10 cm/s)": "-5.26"}
{"smiles": "CC(C)C[C@@H]1NC(=O)[C@H]2CCCN2C(=O)CN(Cc2ccccc2)C(=O)[C@@H](CC(C)C)NC(=O)C[C@H](Cc2ccccc2)NC(=O)[C@H]2CCCN2C(=O)[C@H](Cc2ccccc2)NC1=O", "PAMPA (log10 cm/s)": "-6.07"}
{"smiles": "CC(C)C[C@H]1NC(=O)[C@H](C)NC(=O)[C@H]2CCCN2C(=O)[C@H](Cc2ccccc2)NC(=O)CN(Cc2ccccc2)C(=O)[C@H]2CCCN2C(=O)[C@@H](CC(C)C)NC1=O", "PAMPA (log10 cm/s)": "-6.67"}
{"smiles": "CC(C)C[C@H]1NC(=O)[C@H]2CCCN2C(=O)[C@H](CC(C)C)N(C)C(=O)[C@@H](CC(C)C)NC(=O)[C@H](C)N(C)C(=O)[C@H]2CCCN2C(=O)[C@H](Cc2ccccc2)NC1=O", "PAMPA (log10 cm/s)": "-5.47"}
{"smiles": "CCCN1CC(=O)N(C)[C@H](CC(C)C)C(=O)N[C@H](CC(C)C)C(=O)N2CCC[C@@H]2C(=O)N(Cc2ccccc2)CC(=O)N[C@@H](Cc2ccccc2)C(=O)N2CCC[C@@H]2C1=O", "PAMPA (log10 cm/s)": "-5.39"}
{"smiles": "CC(C)C[C@@H]1NC(=O)[C@H]2CCCN2C(=O)[C@@H](CC(C)C)NC(=O)[C@@H](CC(C)C)N(C)C(=O)C[C@H](Cc2ccccc2)NC(=O)[C@H]2CCCN2C(=O)[C@H](Cc2ccccc2)NC1=O", "PAMPA (log10 cm/s)": "-5.99"}
{"smiles": "CC(C)C[C@@H]1C(=O)N2CCC[C@H]2C(=O)N(C)[C@@H](CC(C)C)C(=O)N[C@@H](Cc2ccccc2)C(=O)N2CCC[C@@H]2C(=O)N[C@@H](C)C(=O)N[C@H](CC(C)C)C(=O)N1C", "PAMPA (log10 cm/s)": "-5.66"}
{"smiles": "CC(C)C[C@@H]1NC(=O)[C@H](C)NC(=O)[C@@H]2CCCN2C(=O)[C@H](Cc2ccccc2)NC(=O)[C@@H](CC(C)C)NC(=O)[C@@H]2CCCN2C(=O)[C@@H](CC(C)C)NC1=O", "PAMPA (log10 cm/s)": "-6.15"}
{"smiles": "CC(C)C[C@@H]1NC(=O)[C@H]2CCCN2C(=O)[C@@H](CC(C)C)NC(=O)[C@H](CC(C)C)N(C)C(=O)[C@@H](C)NC(=O)[C@H](Cc2ccccc2)NC1=O", "PAMPA (log10 cm/s)": "-6.61"}
{"smiles": "CC(C)C[C@@H]1NC(=O)C[C@H](Cc2ccccc2)NC(=O)[C@H]2CCCN2C(=O)[C@H](Cc2ccccc2)NC(=O)[C@H](CC(C)C)N(C)C(=O)[C@@H]2CCCN2C(=O)[C@@H](CC(C)C)N(C)C1=O", "PAMPA (log10 cm/s)": "-5.42"}
{"smiles": "CC(C)C[C@@H]1C(=O)N(Cc2ccccc2)CC(=O)N2CCC[C@H]2C(=O)N(C)[C@H](CC(C)C)C(=O)N[C@@H](Cc2ccccc2)C(=O)N2CCC[C@H]2C(=O)N(C)[C@@H](C)C(=O)N1C", "PAMPA (log10 cm/s)": "-6.11"}
{"smiles": "CC(C)C[C@H]1C(=O)N(Cc2ccccc2)CC(=O)N2CCC[C@@H]2C(=O)N(C)[C@@H](CC(C)C)C(=O)N[C@@H](Cc2ccccc2)C(=O)N2CCC[C@@H]2C(=O)N(C)[C@H](C)C(=O)N1C", "PAMPA (log10 cm/s)": "-5.42"}
{"smiles": "CC(C)C[C@@H]1NC(=O)C[C@H](Cc2ccccc2)NC(=O)[C@H]2CCCN2C(=O)[C@H](Cc2ccccc2)NC(=O)[C@@H](CC(C)C)NC(=O)[C@H]2CCCN2C(=O)[C@H](CC(C)C)N(C)C1=O", "PAMPA (log10 cm/s)": "-5.95"}
{"smiles": "CC(C)C[C@@H]1NC(=O)[C@@H]2CCCN2C(=O)C[C@H](Cc2ccccc2)NC(=O)[C@@H](CC(C)C)N(C)C(=O)[C@H](C)NC(=O)[C@@H]2CCCN2C(=O)[C@H](Cc2ccccc2)NC1=O", "PAMPA (log10 cm/s)": "-6.31"}
{"smiles": "CC(C)C[C@@H]1NC(=O)[C@H](C)N(C)C(=O)[C@H]2CCCN2C(=O)[C@H](Cc2ccccc2)NC(=O)[C@H](CC(C)C)N(C)C(=O)[C@@H]2CCCN2C(=O)CN(Cc2ccccc2)C1=O", "PAMPA (log10 cm/s)": "-4.97"}
{"smiles": "CC(C)C[C@H]1NC(=O)[C@H](C)N(C)C(=O)[C@H]2CCCN2C(=O)[C@H](Cc2ccccc2)NC(=O)[C@H](CC(C)C)N(C)C(=O)[C@H]2CCCN2C(=O)CN(Cc2ccccc2)C1=O", "PAMPA (log10 cm/s)": "-5.74"}

The 3 highest values of PAMPA among the entries above:

{"smiles": "CCCN1CC(=O)N[C@H](CC(C)C)C(=O)N[C@H](CC(C)C)C(=O)N2CCC[C@@H]2C(=O)N[C@H](CC(C)C)C(=O)N[C@@H](Cc2ccccc2)C1=O", "PAMPA (log10 cm/s)": "-4.93"}
{"smiles": "CC(C)C[C@@H]1NC(=O)[C@H](C)N(C)C(=O)[C@H]2CCCN2C(=O)[C@H](Cc2ccccc2)NC(=O)[C@H](CC(C)C)N(C)C(=O)[C@@H]2CCCN2C(=O)CN(Cc2ccccc2)C1=O", "PAMPA (log10 cm/s)": "-4.97"}
{"smiles": "CC(C)C[C@@H]1NC(=O)[C@@H](CC(C)C)NC(=O)[C@@H](C)N(C)C(=O)[C@H](Cc2ccccc2)NC(=O)[C@@H](CC(C)C)NC(=O)[C@H]2CCCN2C1=O", "PAMPA (log10 cm/s)": "-5.26"}

Collected by the curators of CycPeptMPDB (Li et al. 2023) from Townsend et al. 2020, doi:10.26434/chemrxiv.13335941.v1.